Experiment: Dissociation constant, pKa of the compound
Type: physicochemical

| pKa | SMILES |
| --- | --- |
| 4.08 | Cc1cnc(NC(=O)C2=C(O)c3ccccc3S(=O)(=O)N2C)s1 [MELOXICAM] |
| 6.4 | Nc1ccc(S(=O)(=O)Nc2ncccn2)cc1 [SULFADIAZINE] |
